Source: PubChem BioAssay AID686952 (The Scripps Research Institute Molecular Screening Center, 2013)
This is a selection; strong and weak results do not stand in their true shares. Active and inactive are the calls of the source.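 The calls were made as follows: active = activation above the all-compound mean plus 3 SD, ignoring values outside control-based bounds (cut at about 4.8% in these data); inactive = the rest.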

Test: EDANS-DABCYL substrate optical interference, artefact control for kallikrein-7 zymogen activator project, biochemical, fluorescence intensity, high throughput (AID 686952);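 also: value is the 4 h activation minus the activation read at time zero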
Settings: no enzyme, 4 h, at 7 µM, hits give high values, solvent 0%, active enzyme control 100%
In the case of `Nc1ccc2c(ccc3cccnc32)n1.O=[N+]([O-])c1cc([N+](=O)[O-])c(O)c([N+](=O)[O-])c1`, the activation is reported as active: 7.53%.
